# Experimental data from PubChem BioAssay AID2012 (Sanford-Burnham Center for Chemical Genomics, 2009).
# The entries are a selection whose mix differs from that of the whole data set. The source made the active and inactive calls. How the calls were made is not given here.
# Target: Eukaryotic translation initiation factor 4H (Homo sapiens) (UniProt Q15056)
# Assay: eIF4H binding inhibition – biochemical, uHTS, fluorescence polarization, translation initiation inhibitor project, primary screen (AID 2012)
# Conditions: eIF4H fluorescence polarization binding assay; at 35 µM; active compounds read high
row,Compound,inhibition
1,O=P1(Nc2ccccn2)COc2ccccc2OC1,inactive: -7.7%
